Test results reported in patent US6476187B1, “Methods and reagents for discovering and using mammalian melanocortin receptor agonists and antagonists to modulate feeding behavior in animals” (Oregon Health & Sciences University, priority 1992, dated 2002).

Amino acid sequences for entries named in this document (tags omitted). A change or cut given only in a name is not applied to a line headed by its entry.
UniProt P32244: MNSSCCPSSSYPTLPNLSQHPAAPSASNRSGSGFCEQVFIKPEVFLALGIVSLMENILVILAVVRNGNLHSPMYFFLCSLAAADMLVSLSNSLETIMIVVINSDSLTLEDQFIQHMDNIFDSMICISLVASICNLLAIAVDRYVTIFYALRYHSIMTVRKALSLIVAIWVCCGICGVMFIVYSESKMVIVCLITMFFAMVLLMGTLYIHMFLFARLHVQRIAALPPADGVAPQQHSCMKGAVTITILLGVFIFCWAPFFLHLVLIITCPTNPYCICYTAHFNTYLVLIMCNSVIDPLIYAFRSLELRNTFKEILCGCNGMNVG

Target: T1, rat MC3-R (Rattus norvegicus, UniProt P32244)
T1 construct: The entire coding region of the MC-3 receptor cDNA insert; expressed in transfected cells; host or cells: human 293 cells, pcDNA/neo I, G418-selected
Assay: intracellular cAMP production in 293 cells expressing MC3-R
Assay type: cell-based
Settings: 1 h at 37° C.
Method: cAMP production assays as described above were also used to analyze expression of MC3-R in cells transfected with the expression vectors described herein as follows. Cells (˜5×10^6) were plated in 6-well dishes, washed once with DMEM containing 1% bovine serum albumin (BSA) and 0.5 mM IBMX (a phosphodiesterase inhibitor), then incubated for 1 h at 37° C. with varying concentrations of the melanotropic peptides αMSH, γ3MSH, γMSH, the MSH peptide analogues Nle^4-D-Phe^7-αMSH (NDP-MSH), ACTH4-10 and ACTH1-39. Following hormone treatment, the cells were washed twice with phosphate buffered saline and intracellular cAMP extracted by lysing the cells with 1 mL of 60% ethanol. Intracellular cAMP concentrations were determined using an assay which measures the ability of cAMP to displace [8-^3H] cAMP from a high affinity cAMP binding protein (see Gilman, 1979, Proc. Natl. Acad. Sci. USA 67: 305-312).
The abscissa indicates the concentration of each hormone and the ordinate indicates the percentage of basal intracellular cAMP concentration achieved by each treatment. […] None of the peptides tested induced any change in intracellular cAMP in cells containing the vector alone. Cells expressing rat MC3-R responded strongly to every melanotropic peptide containing the MSH code sequence His-Phe-Arg-Trp, with up to a 60-fold elevation of intracellular cAMP levels.

## α-melanocyte stimulating hormone [α-MSH]
  EC50: 4 nM
